According to patent US5593678A, “Protection of teleost fish” (University of Georgia Research Foundation, priority 1994, dated 1997):

What was measured:
[1] = system: NCC; settings: relatively high concentrations
[2] = system: IM-9 target cells; settings: 10 mM
Protocol: In further studies, NCC were treated with different concentrations of protein phosphatase inhibitors for two hours and labeled IM-9 target cells were added for a four-hour microcytotoxicity assay (Table 8). […] To determine if the activating effects of the protein phosphatase inhibitors were reversible, NCC were treated for 90 minutes with NaF and vanadate and then the inhibitors were removed prior to addition of the labeled target cells.

[3] = system: NCC from stressed fish (lysis of IM-9 target cells); settings: Table 9
Protocol: (§1) A ^51 Cr release assay was used to determine cytotoxicity. Target cells at 1-2×10^6 cells/ml were labeled with 100 μCi of sodium chromate (Amersham, Arlington Heights, Ill.). NCC effector cells were treated as previously described [Evans et al. (1988) supra], centrifuged (500 g), and resuspended in media and added at different E:T ratios to the labeled target cells in round-bottomed 96-well microtiter plates. This mixture was incubated (25° C.) for 4-6 hours and 100 μl of each supernatant was removed to determine radioactivity (Beckman Biogamma II Counter; Beckman Instruments, Irvine, Calif.). The results are expressed as either percentage specific release (SR)=[(test release--spontaneous release)/(total release--spontaneous release)]×100; percent inhibition=[(percentage control SR--percentage test SR)/percentage control SR]×100; and percentage increase=(percentage test SR--percentage control SR)/percentage control SR.
A common observation in fish exposed to stress, e.g., toxicants, drastic temperature changes, handling, etc., is the temporary loss of NCC activity.

[4] = system: NCC (lysis of IM-9 target cells); settings: for Percentage of control (NCC cytotoxic activity): 120 minutes
Protocol: FIG. 4. Individual and combined effects of phosphatase inhibitors on NCC cytotoxicity, NCC (7×10^5 cells) were incubated with either media (.diamond.), vanadate (Δ) (5 mM). NaF (.smallcircle.) (20 mM), or both vanadate and NaF (.quadrature.) for the indicated time periods before addition to labeled IM-9 target cells.
FIG. 5. Effects of removal of Na3 VO4 on NCC activation. NCC were harvested, incubated for three hours, washed, counted and added to duplicate tubes containing either media alone or media containing 2.5, 5 and 10 mM vanadate. Following a 90 minutes incubation time, the cells were either washed and resuspended in media (closed circles) or added directly (open circles) to wells containing ^51 chromium labeled IM-9 target cells (E:T ratio 40:1).
FIG. 6. Effects of removal of NaF on NCC activation. NCC were harvested, incubated for three hours in media, washed, counted and added to duplicate tubes containing media alone or in the presence of 5, 10 and 20 mM NaF. Following a 90 minutes treatment time, NCC were either washed (closed circles) or added directly (open circles) to wells containing labeled IM-9 target cells (E:t ratio 40:1).
FIG. 7. Effects of Na3 VO4 on NCC with different levels of cytotoxicity. NCC were harvested from anterior kidneys of fish from three different sources. The cells were incubated in media for three hours, washed, counted and added to test tubes containing either media alone or media with 2.5, 5 and 10 mM vanadate. Following a two hours incubation time, the effectors were added to wells containing labeled IM-9 cells at a 40:1 E:T ratio.
FIG. 8. Effects of NaF on NCC with different levels of cytotoxicity. NCC were harvested from anterior kidneys of fish from three different sources. The cells were incubated in media for three hours, washed, counted and added to media or media with 5, 10 and 20 mM NaF. Following a two-hour incubation, NCC were added to wells containing ^51 chromium labeled IM-9 target cells for a final E:T ratio of 40:1.
as §1
NCC were obtained as previously described [Graves et al. (1984) supra]; Evans et al. (1984) supra]. […] NCC were then washed and resuspended at 20×10^6 cells/ml, and 35 μl aliquots were added to test tubes containing 315 μl media only (media control) or media containing the indicated treatments. After 2 hr incubation, the cells were mixed with ^51 Cr-labeled IM-9 target cells and incubated for 4-6 hours ([…]). Supernatants were harvested and cytotoxicity levels were calculated as previously described.
Membrane phosphorylation is maintained through a delicate equilibrium between cellular kinase and phosphatase activities.
In further studies, NCC were treated with different concentrations of protein phosphatase inhibitors for two hours and labeled IM-9 target cells were added for a four-hour microcytotoxicity assay (Table 8).

[5] = system: catfish
[6] = system: catfish; assay: In vivo vanadate concentration titration, toxicity profile (immersion)

Substance: sodium orthovanadate
- toxicity to NCC [1]: not toxic to NCC
- nonspecific toxicity (release of chromium^51 from IM-9 targets) [2]: less than 10%
- cytotoxic activity of NCC from stressed fish [3]: augmented cytotoxic activity from essentially zero to relatively high levels
- cytotoxic activity of NCC from stressed fish ([3]; listed as sodium vanadate): significantly increased lysis of target cells
- Percentage of control (NCC cytotoxic activity) ([4]; 2.5 mM, E:T 25:1): 494.4%
- Percentage of control (NCC cytotoxic activity) ([4]; 2.5 mM, E:T 50:1): 155.3%
- Percentage of control (NCC cytotoxic activity) ([4]; 2.5 mM, E:T 100:1): 148.6%
- Percentage of control (NCC cytotoxic activity) ([4]; 5 mM, E:T 25:1): 664.4%
- Percentage of control (NCC cytotoxic activity) ([4]; 5 mM, E:T 50:1): 212.4%
- Percentage of control (NCC cytotoxic activity) ([4]; 5 mM, E:T 100:1): 162.1%
- Percentage of control (NCC cytotoxic activity) ([4]; 10 mM, E:T 25:1): 897.1%
- Percentage of control (NCC cytotoxic activity) ([4]; 10 mM, E:T 50:1): 225.8%
- Percentage of control (NCC cytotoxic activity) ([4]; 10 mM, E:T 100:1): 159.1%
- incubation time for maximum activation of cytotoxicity ([4]; FIG. 4): 60 min
- cytotoxicity in presence of inhibitor, normal NCC ([4]; FIG. 5, FIG. 6): significant increased cytotoxicity
- fish responders with low, medium, high cytotoxicity ([4]; FIG. 7, FIG. 8): The greatest effects were observed with the low cytotoxicity groups
- response of NCC with low control cytotoxicity ([4]; NCC with 2.0% control Specific Release, FIG. 7): highly responsive
- effect on NCC cytotoxicity ([4]; Table 7): activated the cytotoxicity of NCC
- concentration at which toxic responses were not observed ([5]; exposed one time, immersion): 0,025-0,100 mM
- concentration toxic to catfish ([5]; immersion): greater than 0.125 mM
- concentration lethal to live fish ([5]; in vivo): ≥ 2500 µM
- well tolerated concentration [6]: ≤ 0.05 mM

Like-named read-outs stand apart in the source and are kept apart here.
